The text below walks through data of patent US10118947B2, “Modulation of structured polypeptide specificity” (BICYCLE THERAPEUTICS LIMITED, priority 2013, dated 2018).

The chains behind the UniProt entries cited, without tags or fusion partners. Residues count along the entry.
UniProt P03952, 20-638: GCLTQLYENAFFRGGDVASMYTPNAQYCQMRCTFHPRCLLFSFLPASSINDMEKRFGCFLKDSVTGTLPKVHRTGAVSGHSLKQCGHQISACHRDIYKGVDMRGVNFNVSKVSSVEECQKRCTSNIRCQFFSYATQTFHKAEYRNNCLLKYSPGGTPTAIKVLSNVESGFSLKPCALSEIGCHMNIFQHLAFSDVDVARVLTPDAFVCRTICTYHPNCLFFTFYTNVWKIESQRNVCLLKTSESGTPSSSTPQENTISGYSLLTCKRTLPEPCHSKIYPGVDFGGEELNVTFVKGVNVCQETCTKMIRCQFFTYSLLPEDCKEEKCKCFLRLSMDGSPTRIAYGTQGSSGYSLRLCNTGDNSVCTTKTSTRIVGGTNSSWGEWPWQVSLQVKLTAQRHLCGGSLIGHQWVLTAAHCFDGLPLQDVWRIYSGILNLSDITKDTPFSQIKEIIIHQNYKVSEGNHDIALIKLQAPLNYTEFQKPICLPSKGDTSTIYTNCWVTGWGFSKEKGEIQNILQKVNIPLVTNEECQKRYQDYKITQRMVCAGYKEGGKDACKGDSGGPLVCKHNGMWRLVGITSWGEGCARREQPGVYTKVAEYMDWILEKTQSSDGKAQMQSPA

The test addresses T1, human plasma Kallikrein (Homo sapiens, UniProt P03952).
T1 construct: purchased Stratech, UK
As to the kind of experiment: Functional enzyme inhibition assay with fluorogenic substrate Z-PheArg-AMC, human plasma Kallikrein. Type of test: biochemical. The settings on record: Table 4; read-out: Kallikrein Av Ki. The method, then: Functional enzyme assays were conducted in 10 mM Tris HCl, 150 mM NaCl, 10 mM MgCl2, 1 mM CaCl2) and 1 mg/mL BSA (all Sigma UK) pH7.4 at 25° C. in solid black 96 well plates. Briefly 26.5 pM human plasma Kallikrein (purchased from Stratech, UK) or 500 pM rat plasma Kallikrein (expressed and purified in house) were incubated in the absence or presence of increasing concentrations of test peptide for 15 minutes before addition of the fluorogenic substrate Z-PheArg-AMC (Enzo Lifesciences UK) to a final assay concentration of 100 μM in 4% DMSO. Release of AMC was measured using a Pherastar FS (BMG Labtech), excitation 360 nm, emission 460 nm. The rate of the linear phase of the reaction, typically 5 to 45 minutes, was calculated in MARS data analysis software (BMG labtech). […]
Peptides were dissolved as the TFA-salts in their powder form, and stock solutions were usually prepared in water. […] Extinction coefficients were calculated based on the Trp/Tyr content of the peptide, and that of TMB (the TMB core, when contained in a peptide, has an ε of ˜300 M^−1cm^−1). For peptides containing non-natural amino acids with suspected chromophoric properties (i.e. NorHar, 4PhenylPro, 3Pal, 4Pal, Tic, 4GuanPhe, 4,4-BPAI, 3,3-DPA, 1NAI, 2NAI, 4BenzylPro, Ind) concentrations were determined by weighing the powder and dissolving the peptide in a defined quantity of water. […]

Take `C[C@H](N)C(=O)N[C@H]1CSCc2cc3cc(c2)CSC[C@@H](C(=O)N[C@@H](C)C(N)=O)NC(=O)[C@H]([C@@H](C)O)NC(=O)[C@H]([C@@H](C)O)NC(=O)[C@H](Cc2c[nH]c4ccccc24)NC(=O)[C@H]([C@@H](C)O)NC(=O)[C@H](CCCNC(=N)N)NC(=O)[C@H](CSC3)NC(=O)[C@H](CC(N)=O)NC(=O)[C@H](CCC(N)=O)NC(=O)[C@@H]2CCCN2C(=O)CNC(=O)CNC1=O` [Peptide 06-56]: the Ki came to 2.1 nM.
The value for `CC(C)C[C@@H]1NC(=O)[C@H](CO)NC(=O)[C@H]([C@@H](C)O)NC(=O)[C@H]([C@@H](C)O)NC(=O)[C@H](CC(C)C)NC(=O)[C@@H]2CSCc3cc(cc(c3)CSC[C@@H](C(=O)NCC(N)=O)NC1=O)CSC[C@H](NC(=O)[C@H](C)N)C(=O)N[C@@H](C)C(=O)N[C@@H](Cc1c[nH]c3ccccc13)C(=O)N1CCC[C@H]1C(=O)N[C@@H](C)C(=O)N[C@@H](CCCNC(=N)N)C(=O)N2` [Peptide 1E6] was 0.16 nM.

By Ki is commonly meant a measure of affinity in units of concentration, obtained from inhibition or displacement.
